Data published in PubChem BioAssay AID493012 (Sanford-Burnham Center for Chemical Genomics, 2011).
The list shows a part of the results, in another mix than the full data. Some results for these compounds are left out of this collection, so the calls shown say nothing about other tests. The source made the active and inactive calls.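 Rule for the calls: active = inhibition of at least 40% at 20 µM, with no more than 30% in the related APOBEC3A deaminase screen; inactive = the rest.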

Chains of the proteins cited; added tags and fusions are not shown.
UniProt Q9HC16, whole entry: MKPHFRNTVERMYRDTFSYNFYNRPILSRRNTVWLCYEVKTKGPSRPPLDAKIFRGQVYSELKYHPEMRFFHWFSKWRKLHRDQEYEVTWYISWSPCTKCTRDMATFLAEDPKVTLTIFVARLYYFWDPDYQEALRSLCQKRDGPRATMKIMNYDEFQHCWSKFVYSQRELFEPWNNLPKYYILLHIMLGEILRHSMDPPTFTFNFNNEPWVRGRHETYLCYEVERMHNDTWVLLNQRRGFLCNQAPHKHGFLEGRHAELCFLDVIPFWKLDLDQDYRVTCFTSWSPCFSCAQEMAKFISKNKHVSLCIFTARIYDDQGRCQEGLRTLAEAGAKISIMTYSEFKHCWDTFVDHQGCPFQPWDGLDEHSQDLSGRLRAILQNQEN

The molecules below were run against DNA dC->dU-editing enzyme APOBEC-3G (Homo sapiens) (UniProt Q9HC16) (assay: APOBEC3G DNA deaminase inhibitors, primary screen, biochemical, fluorescence, single-stranded DNA substrate, uHTS (AID 493012;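 note: plate controls were DMSO wells with A3G for no effect and wells lacking A3G enzyme for full effect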)). Conditions: recombinant A3G, ssDNA deamination FAM/TAMRA fluorescence; at 20 µM; stronger effect = higher value.

| SMILES | inhibition |
| --- | --- |
| CN(C)c1ccc(C(=O)NCC2(N(C)C)CCCCC2)cc1 | inactive: 0.855% |
| CN(C)C1CCCC1OC(=O)C(O)(c1ccccc1)c1ccccc1 (centres undefined) | inactive: -12.1% |
| Cc1ccccc1C(=O)NCC1(N2CCCCC2)CCCCC1 | inactive: 0.075% |
| COc1ccc(C(=O)NCC2(N(C)C)CCCCC2)cc1 | inactive: -7.52% |
| O=C(NCC1(N2CCCCC2)CCCCC1)c1cccc(Br)c1 | inactive: -5.67% |
| CCN1CCCC(OC(=O)C2(O)c3ccccc3C=Cc3ccccc32)C1 (centres undefined) | inactive: -4.48% |
| Cc1cc(C(=O)NCC2(N3CCCCC3)CCCCC2)ccc1[N+](=O)[O-] | inactive: 6.21% |
| O=C(NCC1(N2CCCCC2)CCCCC1)c1cc(F)c(F)cc1Cl | inactive: -5.74% |
| C=CCN1CCN(CCOC(=O)C(O)(c2ccccc2)c2ccccc2)CC1 | inactive: -6.1% |
| CN1[C@@H]2CC[C@H]1CC(OC(=O)C(O)(c1ccccc1)c1ccccc1)C2 (some centres undefined) | inactive: 1.49% |
| O=C(NCC1(N2CCCCC2)CCCCC1)c1cc([N+](=O)[O-])ccc1Cl | inactive: -0.421% |
| Cc1ccc(C(=O)NCC2(N3CCCCC3)CCCCC2)cc1 | inactive: -10% |
| COc1cc(SC)ccc1C(=O)NCC1(N(C)C)CCCCC1 | inactive: -2.57% |
| CCN(CC)CC(C)C(C)OC(=O)C(O)(c1ccccc1)c1ccccc1 (centres undefined) | inactive: -4.82% |
| CC(C)N1C(=O)CC2(CCN(CCOC(=O)C(O)(c3ccccc3)c3ccccc3)CC2)C1=O | inactive: -2.52% |
| O=C(OC1CN2CCC1CC2)C(CO)(c1ccccc1)c1ccccc1 (centres undefined) | inactive: -5.03% |
| CC(C)Oc1ccc(C(=O)NCC2(N(C)C)CCCCC2)cc1 | inactive: -8.09% |
| CN(C)c1cccc(C(=O)NCC2(N(C)C)CCCCC2)c1 | inactive: -3.56% |
| COc1ccc(Br)c(C(=O)NCC2(N3CCCCC3)CCCCC2)c1 | inactive: -3.17% |
| COc1cc(C(=O)NCC2(N(C)C)CCCCC2)c([N+](=O)[O-])cc1OC | inactive: -10.2% |
| CN(C)C1(CNC(=O)c2ccc(Br)cc2)CCCCC1 | inactive: 4.24% |
| O=C(NCC1(N2CCCCC2)CCCCC1)c1cccc(Cl)c1 | inactive: -7.89% |
| COc1ccc(Cl)cc1C(=O)NCC1(N(C)C)CCCCC1 | inactive: -2.96% |
| COc1cccc(C(=O)NCC2(N3CCCCC3)CCCCC2)c1 | inactive: -3.07% |
